Results on four substances are retold here after paper PMC12132917, “Carborane‐Based Analogs of Celecoxib and Flurbiprofen, their COX Inhibition Potential, and COX Selectivity Index” (Chemmedchem, 2025).

This data set is described as follows: Stability in DMSO/water (1:1, v/v) by HPLC-UV-MS or analytical HPLC. It is filed as physicochemical. The conditions noted are these: DMSO/H2O (1:1, v/v), RP-HPLC. Here is the method: The stability of compounds 6, 7, 9, 10, 13a,b, and 14a,b in aqueous solution was studied by HPLC‐UV‐MS or analytical HPLC measurements as well (see Supporting Information for details, “4 HPLC Stability Determination of Compounds 6, 7, 9, 10, 13a, 13b, 14a, 14b”). All compounds except 13a were stable for at least one day (Supporting Information, section 4 ).
The stability was evaluated for all compounds in a mixture of DMSO, dried over molecular sieve, and LC‐MS grade water (1:1, v/v) with the same HPLC‐UV‐MS systems as described under “Purity Determination”. The column, eluent system, flow and MS tool were operated in the same way. For the stability determination, a few milligrams of each compound were dissolved in 1 mL DMSO. To dissolve the compounds, they were vortexed and heated up if necessary. The stock solution was further diluted with water. For that, 50–100 μL of the stock solution was transferred into a vial and the same amount of LC‐MS grade water was added. The two solvents were mixed thoroughly, and the measurement with HPLC‐UV‐MS was directly started. Additionally, measurements were performed in a varying time frame, from 15 or 20 min to 1 day. Usually, the injection volume was 10 μL, and before the measurement of the samples, a blank run with only DMSO/LC‐MS grade water (1:1, v/v) was performed. […] For the latter compounds, the aforementioned system (Agilent 1200 system) and the following gradient was used: 0–3 min 45% eluent B, 3–28 min 45%–95% eluent B, 28–34 min 95% eluent B, 34–35 min 95%–45% eluent B, then 35–40 min 45% eluent B, flow: 0.75 mL min^−1.
4 Stability Determination of Compounds 6, 7, 9, 10, 13a, 13b, 14a, 14b by HPLC A few milligrams of each compound have been dissolved in 1 mL DMSO, which was stored over molecular sieve.
50-100 µL of the DMSO solution have been transferred into a separate vial together with the same amount of LC-MS grade water. The mixture was measured directly after water addition and in time intervals from 20 min to 1 d by HPLC-UV-MS or analytical HPLC measurements. All compounds were stable for at least one day except for […]
rather for its nido-carborane analog, which was anyway the most prominent side product, no further stability measurements have been performed.
Figure S74. RP-HPLC chromatograms of blank (DMSO/H2O, black and green) and compound 6, retention time: 10.5 min, purity after 1 d: >98%.
Figure S75. RP-HPLC chromatograms of blank (DMSO/H2O, blue and pink) and compound 7, retention time: 8.3 min, purity after 1 d: >96%. […]

In the case of “(R/S)‐2‐[2‐fluoro‐(1,1′‐biphenyl)‐4‐yl]‐N‐(1,2‐closo‐dicarbadodecaborane)‐ethylpropanamide [Compound 13b]”, the “purity after 1 d” value was greater than 97%.

Consider “(R/S)‐2‐[2‐fluoro‐(1,1′‐biphenyl)‐4‐yl]‐N‐(1,2‐closo‐dicarbadodecaborane)‐methylpropanamide [Compound 13a]”, for which the “purity after 1 d” value is given as ~ 89%.

On to “Cesium (R/S)‐2‐[2‐fluoro‐(1,1'‐biphenyl)‐4‐yl]‐N‐(7,8‐nido‐dicarbadodecahydroundecaborate(−1))‐ethylpropanamide [Compound 14b]”, for which the “purity after 1 d” value is given as ~ 95%.

On to “Cesium (R/S)‐2‐[2‐fluoro‐(1,1′‐biphenyl)‐4‐yl]‐N‐(7,8‐nido‐dicarbadodecahydroundecaborate(−1))‐methylpropanamide [Compound 14a]”, for which the “purity after 1 d” value was ~ 95%.
